Data as given in patent publication US10988459B2 (priority 2015, dated 2021).

By UniProt entry, the sequences of proteins in these tests, tags left out. Residues count along the entry.
UniProt Q13546, 2-375 limits assumed: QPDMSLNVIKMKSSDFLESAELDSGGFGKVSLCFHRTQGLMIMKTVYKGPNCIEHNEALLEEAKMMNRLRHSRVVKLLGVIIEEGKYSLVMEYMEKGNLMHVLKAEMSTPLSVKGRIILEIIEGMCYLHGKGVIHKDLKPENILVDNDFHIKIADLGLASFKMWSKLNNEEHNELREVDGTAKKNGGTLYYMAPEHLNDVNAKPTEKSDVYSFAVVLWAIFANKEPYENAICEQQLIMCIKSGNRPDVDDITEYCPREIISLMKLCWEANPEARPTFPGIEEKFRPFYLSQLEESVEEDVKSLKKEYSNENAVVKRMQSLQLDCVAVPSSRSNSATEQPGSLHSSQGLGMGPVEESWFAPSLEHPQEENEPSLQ

Biological target: human RIP1 kinase domain (2-375) (Homo sapiens (Human), UniProt Q13546)
Details: read-out: RIP1 Ki, 50 uM ATP, 2 hours incubation, Transcreener ADP assay

Structure (SMILES)	pKi
CC[C@@]1(C)Cc2c(C(=O)N[C@H]3COc4ccccc4N(C)C3=O)n[nH]c2CO1	6.38
CC[C@]1(C)Cc2c(C(=O)N[C@H]3COc4ccccc4N(C)C3=O)n[nH]c2CO1	6.97
CN1C(=O)C(NC(=O)c2cc3c(cn2)cnn3[C@@H]2CCOC2)COc2ccccc21 (stereo partly drawn)	7.38

pKi: −log10 of the molar value.
